# In PubChem BioAssay AID1117328 (Cheminformatics & Chemogenomics Research Group (CCRG), …, 2015):
# By UniProt entry, the sequences of proteins in these tests, tags left out.
# UniProt P23443, whole entry, looked up: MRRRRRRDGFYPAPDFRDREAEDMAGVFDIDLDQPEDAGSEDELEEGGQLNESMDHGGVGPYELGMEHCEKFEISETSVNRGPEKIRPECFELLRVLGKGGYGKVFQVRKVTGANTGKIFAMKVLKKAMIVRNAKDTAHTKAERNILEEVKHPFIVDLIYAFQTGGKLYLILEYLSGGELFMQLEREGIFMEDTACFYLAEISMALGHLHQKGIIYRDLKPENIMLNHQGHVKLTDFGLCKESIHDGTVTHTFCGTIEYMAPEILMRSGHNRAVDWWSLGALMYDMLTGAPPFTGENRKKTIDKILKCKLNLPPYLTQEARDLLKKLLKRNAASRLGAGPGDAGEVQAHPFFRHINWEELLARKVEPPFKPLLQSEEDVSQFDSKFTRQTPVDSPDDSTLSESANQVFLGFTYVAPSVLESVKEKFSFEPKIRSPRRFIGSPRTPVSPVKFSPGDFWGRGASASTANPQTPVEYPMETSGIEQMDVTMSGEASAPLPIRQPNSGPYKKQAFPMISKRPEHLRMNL
# Molecular target: Ribosomal protein S6 kinase beta-1 (Homo sapiens) (UniProt P23443)
# Assay: p70S6K1 kinase inhibitors, biochemical, LANCE Ultra TR-FRET (AID 1117328)
# Settings: LANCE Ultra TR-FRET kinase assay, at 20 µM (top of the series)
structure (smiles),measurement,value
CN(CCCl)CCCl,inhibition,52.4%
